Measured values from article PMC7021470 (mSphere, 2020).

Target: T1, E. faecalis metalloprotease GelE (bacterial supernatants) (Enterococcus faecalis, UniProt Q833V7)
T1 sequence (Q833V7 whole entry, looked up): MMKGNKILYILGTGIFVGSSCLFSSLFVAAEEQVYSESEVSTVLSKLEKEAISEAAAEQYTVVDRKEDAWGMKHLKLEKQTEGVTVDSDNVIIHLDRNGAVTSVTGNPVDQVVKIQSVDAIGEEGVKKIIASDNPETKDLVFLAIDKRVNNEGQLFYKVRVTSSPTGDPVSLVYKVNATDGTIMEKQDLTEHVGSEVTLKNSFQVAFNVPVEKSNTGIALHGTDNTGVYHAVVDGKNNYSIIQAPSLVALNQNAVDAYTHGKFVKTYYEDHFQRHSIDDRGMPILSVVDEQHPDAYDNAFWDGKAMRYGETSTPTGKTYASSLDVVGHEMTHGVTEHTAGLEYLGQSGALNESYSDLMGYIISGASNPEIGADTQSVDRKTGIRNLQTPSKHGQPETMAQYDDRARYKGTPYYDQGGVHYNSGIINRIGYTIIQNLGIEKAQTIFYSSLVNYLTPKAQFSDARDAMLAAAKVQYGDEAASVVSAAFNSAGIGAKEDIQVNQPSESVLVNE
Conditions: E. faecalis 30054A supernatant, 1x (undiluted); recombinant substrate; 4 h at room temperature; Luminex (Milliplex) read-out; mean ± SD, n = 3 independent experiments
Method: To gain a better understanding of the substrate preference of GelE, we also tested the ability of diluted supernatants of E. faecalis 30054A, from 1 to 0.0001×, to degrade the same panel of metabolic substrates (Table 1).
Bacterial supernatants were collected from an overnight culture by centrifugation as described above, diluted in bacterial culture medium as indicated, and incubated with recombinant protein (GenScript; Sigma, Tocris) of each analyte for 4 h at room temperature, followed by storage at –80°C until ready for analyte quantification. The Milliplex multiplex assay was run according to the protocol provided by the manufacturer.

Substance | quantity (%) of substrate remaining after incubation with supernatant, dilution 1x
monocyte chemoattractant protein-1 [MCP-1] | 35.14 ± 14.14%
tumor necrosis factor alpha [TNFα] | 39.73 ± 8.05%
